Reference: patent EP4772502A1, “ARYL OR HETEROARYL SUBSTITUTED CARBAMATE COMPOUND AND DERIVATIVE AND USE THEREOF” (Shenzhen Zhongge Biological Technology Co., Ltd., priority 2023, dated 2025)

Protein sequences, listed by entry. Tags and fused reporters are not part of them.
UniProt Q13131, whole entry: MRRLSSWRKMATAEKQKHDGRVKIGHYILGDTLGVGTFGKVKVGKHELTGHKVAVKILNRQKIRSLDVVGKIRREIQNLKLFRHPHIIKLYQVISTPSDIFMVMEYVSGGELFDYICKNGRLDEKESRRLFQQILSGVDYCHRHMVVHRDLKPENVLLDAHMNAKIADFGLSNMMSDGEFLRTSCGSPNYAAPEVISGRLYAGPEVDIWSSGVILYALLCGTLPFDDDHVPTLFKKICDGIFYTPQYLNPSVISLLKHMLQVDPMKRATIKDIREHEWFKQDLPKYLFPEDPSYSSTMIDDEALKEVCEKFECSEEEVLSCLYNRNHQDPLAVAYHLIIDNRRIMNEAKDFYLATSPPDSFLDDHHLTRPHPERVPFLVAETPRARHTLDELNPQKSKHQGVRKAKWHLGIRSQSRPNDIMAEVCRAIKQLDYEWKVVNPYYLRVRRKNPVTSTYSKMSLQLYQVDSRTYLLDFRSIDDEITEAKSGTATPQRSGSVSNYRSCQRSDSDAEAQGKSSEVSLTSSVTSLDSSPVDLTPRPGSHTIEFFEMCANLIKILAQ
UniProt Q9Y478, whole entry: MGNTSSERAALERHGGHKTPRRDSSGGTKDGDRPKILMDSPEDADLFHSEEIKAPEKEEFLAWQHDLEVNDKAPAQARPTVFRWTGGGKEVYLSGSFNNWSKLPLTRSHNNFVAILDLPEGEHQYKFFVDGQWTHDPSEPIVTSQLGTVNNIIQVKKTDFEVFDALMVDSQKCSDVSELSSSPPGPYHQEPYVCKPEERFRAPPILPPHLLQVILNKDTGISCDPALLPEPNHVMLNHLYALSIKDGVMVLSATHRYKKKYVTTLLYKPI
UniProt P54619, whole entry partner: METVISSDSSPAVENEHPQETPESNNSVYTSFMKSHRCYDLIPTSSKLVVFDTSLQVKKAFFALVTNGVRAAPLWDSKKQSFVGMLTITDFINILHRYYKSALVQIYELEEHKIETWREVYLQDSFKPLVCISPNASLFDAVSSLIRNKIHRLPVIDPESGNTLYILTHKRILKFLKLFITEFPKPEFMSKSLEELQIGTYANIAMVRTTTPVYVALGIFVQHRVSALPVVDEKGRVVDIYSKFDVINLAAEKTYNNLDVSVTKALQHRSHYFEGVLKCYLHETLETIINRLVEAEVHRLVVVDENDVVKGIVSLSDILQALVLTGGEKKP

Biological target: AMPKα1β1γ1 (Homo sapiens, UniProt Q13131+Q9Y478)
Experiment: In vitro assay for AMPK (α1β1γ1) enzyme agonist activity (TR-FRET)
Procedure: Test example 1: In vitro assay for AMPK (α1β1γ1) enzyme agonist activity
Test compounds were dissolved in DMSO to prepare 10 mM stock solution, which was then diluted to the predetermined test concentrations using kinase buffer (50 mM HEPES, 1 mM EDTA, 10 mM MgCl2, 0.01% Brij-35, pH = 7.5). Into a 384-well plate were added 5 µL of AMPKα1β1γ1 (CARNA, 02-113), 2.5 µL of the diluted test compound solution, and 2.5 µL of a mixture of […] and ATP, resulting in the following final concentrations: AMPKα1β1γ1 at 1.6 mg/L, […] at 5 nM, and ATP at 0.1 mM. The components were mixed evenly, and reacted at room temperature for 1 h. […] The values of samples in each well were read using a microplate reader in TR-FRET mode (excitation wavelength: 320 nm; emission wavelengths: 665 nm and 615 nm). By comparing the values with those of the blank control group (1% DMSO) and the positive control group (1 µM A769662), the relative activity of AMPKα1β1γ1 at each test compound concentration (4.57 nM, 13.72 nM, 41.15 nM, 123.46 nM, 370.37 nM, 1111.11 nM, 3333.33 nM, and 10000 nM) was calculated, with the activity of 1 µM A769662 set as 100%. The data were analysed in GraphPad Prism 9 using a Dose-response-Stimulation four-parameter regression model to obtain the Top and EC50 values for the test compounds.

`O=C(Nc1cc(Cl)c(-c2ccc(C3CCCCO3)cc2)s1)O[C@@H]1CO[C@H]2[C@@H]1OC[C@H]2O` (some centres unmarked) was tested, and the EC50 (AMPKα1β1γ1 1.6 mg/L, ATP 0.1 mM, 1 h room temperature, 4.57 nM-10000 nM) was 200 to 500 nM and the “Top value (%)” value (activity of 1 µM A769662 set as 100%) was “C (C indicates the Top value of the test compound's AMPK (α1β1γ1) enzyme agonist activity ≥ 150% and < 200%)”.
